Source: patent US11242337B2, “Compounds useful for treating gastrointestinal tract disorders” (Ardelyx, Inc., priority 2017, dated 2022)

Tests used:
[1] = target: T1, NHE3 (Homo sapiens, UniProt P48764); assay: Cell-based assay of NHE-3 activity (pre-incubation inhibition), human; settings: human Preincubation, 0-30 μM test compound
T1 construct: expressed in transfected cells
T1 sequence (P48764 26-834): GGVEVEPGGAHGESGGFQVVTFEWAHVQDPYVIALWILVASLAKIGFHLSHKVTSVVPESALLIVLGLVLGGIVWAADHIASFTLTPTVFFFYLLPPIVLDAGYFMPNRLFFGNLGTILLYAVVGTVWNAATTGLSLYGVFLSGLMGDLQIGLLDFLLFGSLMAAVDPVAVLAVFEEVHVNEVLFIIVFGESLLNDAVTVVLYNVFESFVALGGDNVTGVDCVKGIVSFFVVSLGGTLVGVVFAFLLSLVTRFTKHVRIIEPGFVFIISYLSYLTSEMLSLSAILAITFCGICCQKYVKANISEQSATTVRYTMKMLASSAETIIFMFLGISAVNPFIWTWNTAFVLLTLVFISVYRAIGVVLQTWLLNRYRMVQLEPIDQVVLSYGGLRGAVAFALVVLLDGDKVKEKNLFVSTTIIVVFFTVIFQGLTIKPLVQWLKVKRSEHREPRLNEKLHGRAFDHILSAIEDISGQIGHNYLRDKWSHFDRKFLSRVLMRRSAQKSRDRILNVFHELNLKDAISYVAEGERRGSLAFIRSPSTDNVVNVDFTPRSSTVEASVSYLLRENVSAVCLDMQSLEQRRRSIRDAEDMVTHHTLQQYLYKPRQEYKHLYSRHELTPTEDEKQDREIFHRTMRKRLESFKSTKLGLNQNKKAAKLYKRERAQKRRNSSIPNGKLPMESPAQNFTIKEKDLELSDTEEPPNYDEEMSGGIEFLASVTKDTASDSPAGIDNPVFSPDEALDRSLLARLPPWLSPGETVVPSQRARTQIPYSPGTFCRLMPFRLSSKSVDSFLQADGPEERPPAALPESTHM
T1 sequence (Q99653 2-195 partner limits assumed): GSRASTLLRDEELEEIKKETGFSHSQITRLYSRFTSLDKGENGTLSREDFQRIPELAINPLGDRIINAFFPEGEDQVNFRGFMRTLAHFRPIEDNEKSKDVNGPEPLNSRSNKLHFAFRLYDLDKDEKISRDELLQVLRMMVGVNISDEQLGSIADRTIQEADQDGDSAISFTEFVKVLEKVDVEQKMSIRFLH
Protocol: Rat and human NHE-3-mediated Na^+-dependent H^+ antiport was measured using a modification of the pH sensitive dye method originally reported by Paradiso (Proc. Natl. Acad. Sci. USA. (1984) 81(23): 7436-7440). PS120 fibroblasts stably expressing human NHE3 and NHERF2 were obtained from Mark Donowitz (Baltimore, Md.). Opossum kidney (OK) cells were obtained from the ATCC and propagated per their instructions. The rat NHE-3 gene (GenBank M85300) was introduced into OK cells via electroporation, and cells were seeded into 96 well plates and grown overnight. Medium was aspirated from the wells then incubated for 30 min at 37° C. with NH4Cl-HEPES buffer (20 mM NH4Cl, 80 mM NaCl, 50 mM HEPES, 5 mM KCl, 2 mM CaCl2, 1 mM MgCl2, pH 7.4) containing 5 μM BCECF-AM. Cells were washed once with Ammonium free, Na^+-free HEPES (100 mM choline, 50 mM HEPES, 10 mM glucose, 5 mM KCl, 2 mM CaCl2, 1 mM MgCl2, pH 7.4) and incubated in the same buffer for 10 minutes at room temperature to lower intracellular pH with 0-30 μM test compound. […] Changes in intracellular pH were monitored using a FLIPR Tetra® (Molecular Devices, Sunnyvale, Calif.) by excitation at λex 439 to 505 nm, and measuring BCECF fluorescence at λem 538 nm. The initial rate of the fluorescence ratio change was used as a measure of NHE-mediated Na^+/H^+ activity, and reported as the change in fluorescence ratio per minute.

[2] = target: T1, NHE3; assay: Cell-based assay of NHE-3 activity (persistent inhibition), human; settings: human Persistence, 60 min incubation then washout
Protocol: The ability of compounds to inhibit human and rat NHE-3-mediated Na^+ dependent H^+ antiport after application and washout was measured using a modification of the pH sensitive dye method described above. PS120 fibroblasts stably expressing human NHE3 and NHERF2 were obtained from Mark Donowitz (Baltimore, Md.). Opossum kidney (OK) cells were obtained from the ATCC and propagated per their instructions. The rat NHE-3 gene was introduced into OK cells via electroporation, and cells were seeded into 96 well plates and grown overnight. Medium was aspirated from the wells, cells were washed once with NaCl-HEPES buffer (100 mM NaCl, 50 mM HEPES, 10 mM glucose, 5 mM KCl, 2 mM CaCl2, 1 mM MgCl2, pH 7.4), then overlayed with NaCl-HEPES buffer containing 0-30 μM test compound. After a 60 min incubation at room temperature, the test drug containing buffer was aspirated from the cells. […] Changes in intracellular pH were monitored using a FLIPR Tetra® (Molecular Devices, Sunnyvale, Calif.) by excitation at λex 439 to 505 nm, and measuring BCECF fluorescence at λem 538 nm. The initial rate of the fluorescence ratio change was used as a measure of NHE-mediated Na^+/H^+ activity, and reported as the change in fluorescence ratio per minute.

Substance: 3-[2-(2-[2-[(4-[[(1S,2S)-4,6-Dichloro-2-[(3R)-3-[methyl(propan-2-yl)amino]piperidin-1-yl]-2,3-dihydro-1H-inden-1-yl]oxy]benzene) sulfonamido]ethoxy]ethoxy)ethyl]-1-[4-([[2-(2-[2-[(4-[[(1S,2S)-4,6-dichloro-2-[(3R)-3-[methyl(propan-2-yl)amino]piperidin-1-yl]-2,3-dihydro-1H-inden-1-yl]oxy]benzene)sulfonamido]ethoxy]ethoxy)ethyl]carbamoyl]amino)butyl]urea; bis(trifluoroacetic acid) [Example 78]
- pIC50 [1]: C (NHE3 pIC50 > 7)
- pIC50 [2]: C (NHE3 pIC50 > 7)
